The test deals with human adipocytes. Description: Estradiol production in cultured human adipocytes (estradiol in conditioned media). Format: cell-based. The settings on record: mix of IL-1b, TNF-α, IL-6, IL-8, IL-11, oncostatin M 0.01 ug/ml each; 72 hr; IFN-γ 0.1 ug/ml, IFN-α 1 ug/ml, IFN-b 2 ug/ml; FIG. 4. The protocol:
Human subcutaneous cultured adipocytes, catalog nos. SP-1012, SP-1024, SP-1096, SP-75, or SP-25 were purchased from Zen-Bio, Inc. (Research Triangle Park, N.C.) and cultured according to the manufacturer's instructions.
Human adipocytes (approximately 100,000 cells/well) were cultured for 24 hr in the presence or absence of different doses of IL-1α and IL-1β (as indicated) with and without IFN-γ (0.1 ug/ml, IL-1α, IL-1β and IFN-γ were purchased from R&D). The amount of estradiol release in the conditioned media was determined by radioimmunoassay for estradiol using the Active™ Estradiol EIA kit according to the manufacturer's instructions (catalog no. DSL-10-4300, Diagnostic Systems Laboratories, Inc., Webster, Tex.). […]
Human adipocytes (100,000 cells/well) were cultured for 72 hr with and without increasing doses of IFN-γ (0.0001 to 1 ug/ml, purchased from R&D). The amount of estradiol in the conditioned media was determined by radioimmunoassay as described in Example 1. […]
Human adipocytes (100,000 cells/well) were cultured for 72 hr in the presence or absence of different doses of the mix Cytokines (IL-1b, TNF-α, IL-6, IL-8, IL-11 and oncostatin M, 0.01 ug/ml/each—dilution as indicated) with and without IFN-γ (0.1 ug/ml), […] (1 ug/ml) or IFN-b (2 ug/ml). […] The amount of estradiol release in the conditioned media was determined by radioimmunoassay as described in Example 1. […]

B1: IFN-β: interferon beta, obtained from Serono (protein, UniProt P01574 22-187, looked up)
Interferon beta: MSYNLLGFLQRSSNFQCQKLLWQLNGRLEYCLKDRMNFDIPEEIKQLQQFQKEDAALTIYEMLQNIFAIFRQDSSSTGWNETIVENLLANVYHQINHLKTVLEEKLEKEDFTRGKLMSSLHLKRYYGRILHYLKAKEYSHCAWTIVRVEILRNFYFINRLTGYLRN
Regarding B1, the “estradiol production stimulated by a mixture of 6 cytokines” value is reported as “do not inhibit”.

(Values after patent US20050079156A1, “Method of treating endometreosis” (priority 2001, published 2005).)
